The text below walks through data of patent US20250297220A1, “IMMUNE-ACTIVATING COMPLEXES” (Dynamic Cell Therapies, Inc., priority 2022, published 2025).

The series is described as follows: Molar absorptivities at 280 nm and 493 nm. Type of series: physicochemical. How it is done: UV-vis absorption profiles were obtained for compound 7-functionalized antibodies, unfunctionalized antibodies, and free compound 7. FIG. 47 provides the results of these analyses. Molar absorptivities (8) were determined for the anti-BCMA antibody at 280 nm (primarily corresponding tyrosine and tryptophan absorbances from the anti-BCMA antibody) and at 493 nm for maleimide fluorescein and 5 (6)-carboxy fluorescein (primarily corresponding to the HOMO to LUMO transition within the fluorescein x-system), and are summarized in Table 18. As the unfunctionalized antibody minimally absorbed around 493 nm, absorbance in this region is quantitative for fluorescein concentration.

Under “molar absorptivity at 280 nm”, 5(6)-Carboxy Fluorescein registered a ε280 nm of 14752 M⁻¹ cm⁻¹. Besides, the ε493nm (molar absorptivity at 493 nm) was 79828 M⁻¹ cm⁻¹.
